Like-named read-outs stand apart in the source and are kept apart here. This is a selection: effects in other tests are not listed, and their absence says nothing.
What was measured:
[1] = target: NAD(P)H:quinone oxidoreductase (NQO1) (Rattus norvegicus, UniProt P05982); details: cited from earlier work
[2] = test system: rat cytosolic enzyme (TrxR1); details: cited from earlier work
HCT-116 cells = details: read-out: HCT-116 GI50; previous data; cited from earlier work
[3] = test system: human mitochondrial enzyme (TrxR2); details: cited from earlier work
HGR = HGR (Homo sapiens, UniProt P00390); test: Reversible inhibition and inactivation of HGR; details: read-out: HGR IC50; 50% decrease of initial rate (t = 0, reversible inhibition); pH 7.0, 25 °C; 200 µM NADPH, 1.0 mM GSSG
[4] = test system: TrxR in the lysates of MH22a and HCT-116 cells; test: TrxR activity in cell lysates; details: 10 µM compound, up to 20 min
[5] = target: human glutathione reductase (HGR) (Homo sapiens, UniProt P00390); details: cited from earlier work
MH22a cells [6] = test: Modulation of cytotoxicity in MH22a cells by antioxidants, dicoumarol and cytochrome P-450 inhibitors; details: compound 10.0 µM
MH22a cells [7] = details: read-out: MH22a cL50; previous data; cited from earlier work
TrxR = details: 50 µM, 4 h, cited from earlier work
[8] = single-electron reduction midpoint potential, pH 7.0; cited from earlier work
human TrxR1 = details: cited from earlier work
GR = details: 50 µM, 4 h, cited from earlier work
[9] = test system: GR in the lysates of MH22a and HCT-116 cells; test: GR activity in cell lysates; details: 10 µM compound, t = 0 vs 20 min incubation with NADPH; 37 °C
Rat TrxR1 = Rat TrxR1 (Rattus norvegicus, UniProt O89049); test: Reversible inhibition and inactivation of rat TrxR1; details: read-out: Rat TrxR1 IC50; 50% decrease of initial rate (t = 0, reversible inhibition); pH 7.0, 25 °C; 200 µM NADPH, 2.0 mM DTNB
[10] = test system: TrxRs (human TrxR2 and rat TrxR1); test: Stimulation of NADPH:oxidase activity of TrxRs ('subversive substrate' action); details: 100 µM compound

Sequences of proteins named here, by UniProt entry; tags and fusion partners are left off. Residues count along the entry.
UniProt P05982, 2-274 limits assumed: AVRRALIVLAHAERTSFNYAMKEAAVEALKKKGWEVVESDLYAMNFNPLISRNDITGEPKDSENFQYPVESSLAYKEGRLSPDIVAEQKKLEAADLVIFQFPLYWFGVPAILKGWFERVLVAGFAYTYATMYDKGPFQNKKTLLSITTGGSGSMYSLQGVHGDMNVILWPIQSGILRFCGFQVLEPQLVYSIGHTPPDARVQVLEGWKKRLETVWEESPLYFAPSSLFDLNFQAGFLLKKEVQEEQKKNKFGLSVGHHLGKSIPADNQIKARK
UniProt P00390, 44-522 limits assumed: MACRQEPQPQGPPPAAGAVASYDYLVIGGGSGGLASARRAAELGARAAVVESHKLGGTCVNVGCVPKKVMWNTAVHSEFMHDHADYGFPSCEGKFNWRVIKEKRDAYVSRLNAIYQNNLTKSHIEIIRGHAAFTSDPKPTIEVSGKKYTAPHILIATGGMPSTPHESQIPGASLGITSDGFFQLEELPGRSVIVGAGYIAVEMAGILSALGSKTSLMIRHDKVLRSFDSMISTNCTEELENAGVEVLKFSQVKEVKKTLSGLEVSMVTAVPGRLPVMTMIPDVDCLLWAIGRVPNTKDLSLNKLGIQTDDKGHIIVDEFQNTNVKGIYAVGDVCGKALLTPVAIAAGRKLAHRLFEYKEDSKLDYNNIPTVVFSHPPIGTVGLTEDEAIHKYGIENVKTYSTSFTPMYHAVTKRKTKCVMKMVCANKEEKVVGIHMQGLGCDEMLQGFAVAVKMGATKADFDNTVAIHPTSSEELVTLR
UniProt O89049, whole entry: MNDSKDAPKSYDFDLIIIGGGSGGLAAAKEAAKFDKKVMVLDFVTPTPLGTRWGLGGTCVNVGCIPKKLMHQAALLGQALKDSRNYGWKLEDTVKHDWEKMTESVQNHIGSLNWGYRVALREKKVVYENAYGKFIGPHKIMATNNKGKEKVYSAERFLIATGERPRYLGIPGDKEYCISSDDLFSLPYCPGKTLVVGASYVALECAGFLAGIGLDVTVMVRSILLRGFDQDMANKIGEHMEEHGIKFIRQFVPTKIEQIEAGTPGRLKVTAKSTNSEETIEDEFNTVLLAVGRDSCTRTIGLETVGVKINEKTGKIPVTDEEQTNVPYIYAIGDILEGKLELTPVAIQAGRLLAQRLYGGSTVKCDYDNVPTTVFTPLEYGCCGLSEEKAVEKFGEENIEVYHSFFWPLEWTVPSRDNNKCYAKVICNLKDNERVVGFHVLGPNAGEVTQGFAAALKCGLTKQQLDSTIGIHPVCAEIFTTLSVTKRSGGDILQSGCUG

Row | SMILES | kcat NQO1 [1] | kcat rat cytosolic TrxR1 [2] | GI50 (HCT-116 cells) | kcat human mitochondrial TrxR2 [3] | IC50 (HGR) | inhibition of TrxR in cell lysates in short-term experiments [4] | kcat HGR [5] | Cell Viability (%) Additions: None (MH22a cells [6]) | IC50 (MH22a cells [7]) | Residual Activity (%) TrxR (TrxR; A549 cells) | Residual Activity (%) TrxR (TrxR; HeLa cells) | E^1_7 [8] | kcat human TrxR1 (human TrxR1) | Residual Activity (%) GR (GR; A549 cells) | Residual Activity (%) GR (GR; HeLa cells) | time-dependent inhibition of GR in cell lysates [9] | IC50 (Rat TrxR1) | increase of NADPH:oxidase activity of TrxRs [10]
1 | CN(c1c([N+](=O)[O-])cc([N+](=O)[O-])cc1[N+](=O)[O-])[N+](=O)[O-] | 73 s⁻¹ | 1.8 s⁻¹ | 8 µM | 0.7 s⁻¹ | 14 µM | efficiently inhibited | ≥ 5 s⁻¹ | 45.5 ± 4.2% | 7 µM | 80% | 75% | −0.191 V | 2.9 s⁻¹ | 100% | 100% | almost absent | 10 µM | 12–14 times
2 | Cc1c([N+](=O)[O-])cc([N+](=O)[O-])cc1[N+](=O)[O-] | – | – | 40 µM | – | – | – | – | – | 17.4 µM | – | – | −0.253 V | – | – | – | – | – | –
3 | O=[N+]([O-])c1cccc([N+](=O)[O-])c1 | – | – | 350 µM | – | – | – | – | – | 130 µM | – | – | −0.345 V | – | – | – | – | – | –
